Experiment: Toxicological study in mice
Type: in vivo
Details: intra-peritoneal route, 30 mg/kg/day, daily administration up to 14 days

Which toxicity does the source give for “3,5-seco-4-nor-cholestan-5-one oxime-3-methyl alcohol [Compound 4]” here?
Its toxicity is “did not show any significant toxicity”.

Source: patent publication US9045393B2, “Derivatives of 3.5-seco-4-norcholestane and use thereof” (TROPHOS, priority 2004, dated 2015)
